Tests used:
[1] = Mouse hypercalcemia assay
VDR (pGal4-VDR-LBD) = VDR (pGal4-VDR-LBD) (Homo sapiens, UniProt P11473); assay: VDR CTF (Caco-2 cell co-transfection assay); conditions: read-out: VDR CTF (Caco-2 cells) EC50
[2] = target: RXR-VDR heterodimer (Gal4-RXR-DEF and VP16-VDR-LBD) (Homo sapiens, UniProt P11473); assay: RXR-VDR heterodimerization assay (SaOS-2 cells); conditions: read-out: RXR-VDR (SaOS-2 cells) EC50
rat osteocalcin promoter = assay: OCN (osteocalcin) promoter assay; conditions: read-out: OCN Promoter EC50
KERtr cells = assay: Keratinocyte proliferation assay; conditions: read-out: Kera. Prolif. IC50, BrdU incorporation, 72 hr
IL-10 = IL-10 induction assay; conditions: read-out: IL-10 IC50; TPA/PHA treated PBMCs, IL-10 in supernatant by immunoassay

By UniProt entry, the sequences of proteins in these tests, tags left out. Residues count along the entry.
UniProt P11473, 127-423 limits assumed: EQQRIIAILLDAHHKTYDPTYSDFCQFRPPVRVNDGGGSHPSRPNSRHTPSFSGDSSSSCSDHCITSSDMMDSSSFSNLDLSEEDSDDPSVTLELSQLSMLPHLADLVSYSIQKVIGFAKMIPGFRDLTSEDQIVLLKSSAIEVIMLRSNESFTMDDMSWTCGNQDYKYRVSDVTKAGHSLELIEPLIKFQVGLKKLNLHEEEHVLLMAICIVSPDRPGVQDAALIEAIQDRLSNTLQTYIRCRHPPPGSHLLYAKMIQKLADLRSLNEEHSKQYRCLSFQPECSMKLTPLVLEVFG

Row | Compound | Mouse Hypercal [1] | EC50 (VDR (pGal4-VDR-LBD)) [nM] | EC50 [2] [nM] | EC50 (rat osteocalcin promoter) [nM] | IC50 (KERtr cells) [nM] | IC50 (IL-10) [nM]
1 | CCc1cc(C(CC)(CC)c2ccc(C(=O)O)s2)ccc1OCC(O)C(C)(C)C (single isomer, unassigned) | 3000 µg/kg/day | 615 | 53.1 |  |  | 
2 | CCC(CC)(c1ccc(OCC(=O)C(C)(C)C)c(C)c1)c1cc(C)c(S(=O)(=O)NC(C)=O)s1 | 3000 µg/kg/day |  | 901 |  |  | 
3 | 1α,25-dihydroxyvitamin D3 | 0.06 µg/kg/day |  |  |  |  | 
4 | CCC(CC)(c1ccc(CCC(O)C(C)(C)C)c(C)c1)c1cc(C)c(C(=O)NCC(=O)OC)s1 (centres unmarked) |  | 289 | 136 | 174 | 114 | 
5 | CCCc1cc(C(CC)(CC)c2ccc(C(=O)O)s2)ccc1OCC(O)C(C)(C)C (centres unmarked) | 3000 µg/kg/day | 598 |  |  |  | 
6 | CCC(CC)(c1ccc(OCC(O)C(C)(C)C)c(C)c1)c1cc(C)c(S(=O)(=O)NCCC(=O)O)s1 (racemic) |  |  | 197 | 43.7 |  | 
7 | CCc1cc(C(CC)(CC)c2ccc(C(=O)O)s2)ccc1OCC(O)C(C)(C)C (centres unmarked) | >1000 µg/kg/day |  |  |  |  | 
8 | CCC(CC)(c1ccc(OCC(O)C(C)(C)C)c(C)c1)c1cc(C)c(S(=O)(=O)NCC(=O)O)s1 (single isomer, unassigned) |  | 1060 | 476 | 27.1 |  | 110
9 | CCC(CC)(c1ccc(CCC(O)C(C)(C)C)c(C)c1)c1cc(C)c(S(=O)(=O)NCC(=O)O)s1 (single isomer, unassigned) |  | 604 | 394 | 40.5 |  | 
10 | CCC(CC)(c1ccc(OCC(=O)C(C)(C)C)c(C)c1)c1cc(C)c(S(=O)(=O)NCCC(=O)O)s1 | 3000 µg/kg/day | 1510 | 688 |  |  | 
11 | CCC(CC)(c1ccc(CCC(O)C(C)(C)C)c(C)c1)c1cc(C)c(S(=O)(=O)NCC(=O)OC)s1 (centres unmarked) |  |  |  | 25.5 |  | 
12 | CCC(CC)(c1ccc(OCC(=O)C(C)(C)C)c(C)c1)c1ccc(OCC(=O)C(C)(C)C)c(C)c1 | 1000 µg/kg/day |  | 109 |  |  | 
13 | CCC(CC)(c1ccc(OCC(O)C(C)(C)C)c(C)c1)c1cc(C)c(CO)s1 (racemic) |  |  |  | 144 |  | 
14 | (5-{1-Ethyl-1-[4-(2-hydroxy-3,3-dimethyl-butoxy)-3-methyl-phenyl]-propyl}-thiophene-2-sulfonylamine)-acetic acid methyl ester |  |  | 474 | 110 |  | 
15 | CCC(CC)(c1ccc(OCC(=O)C(C)(C)C)c(C)c1)c1cc(C)c(S(=O)(=O)NCC(=O)O)s1 | >3000 µg/kg/day |  | 479 |  |  | 
16 | CCC(CC)(c1ccc(OCC(O)C(C)(C)C)c(C)c1)c1cc(C)c(S(=O)(=O)NCC(=O)OC)s1 (racemic) |  | 1300 | 4.05 | 30.6 |  | 
17 | CCC(CC)(c1ccc(OCC(O)C(C)(C)C)c(C)c1)c1cc(C)c(S(=O)(=O)NCC(=O)O)s1 (centres unmarked) | >3000 µg/kg/day |  | 409 |  |  | 
18 | 3′-[4-(2-hydroxy-3,3-dimethylbutoxy)-3-ethylphenyl)-3′-[5-carboxy-thiophen-2-yl]pentane |  |  | 379 | 29.4 |  | 
19 | CCC(CC)(c1ccc(OCC(O)C(C)(C)C)c(C)c1)c1cc(C)c(C(=O)N[C@@H](CC(=O)O)C(=O)O)s1 (some centres unmarked) |  | 889 | 503 |  |  | 
20 | CCOC(=O)CSCc1sc(C(CC)(CC)c2ccc(OCC(=O)C(C)(C)C)c(C)c2)cc1C |  | 781 | 134 |  |  | 
21 | CCC(CC)(c1ccc(OCC(=O)C(C)(C)C)c(C)c1)c1cc(C)c(CN(CC(=O)O)C(C)=O)s1 | >9000 µg/kg/day | 958 | 603 |  |  | 
22 | CCC(CC)(c1ccc(OCC(O)C(C)(C)C)c(C)c1)c1cc(C)c(-c2n[nH]c(=S)o2)s1 (centres unmarked) |  | 782 | 418 |  |  | 
23 | 3′-[4-(2-hydroxy-2,3,3-trimethylbutoxy)-3-n-propylphenyl]-3′-[5-carboxy-thiophen-2-yl]pentane |  |  | 542 | 118 |  | 
24 | CCC(CC)(c1ccc(OCC(O)C(C)(C)C)c(C)c1)c1cc(C)c(-c2n[nH]c(=S)o2)s1 (single isomer, unassigned) |  | 645 | 80.9 | 25.4 |  | 

Row | Compound | Mouse Hypercal [1] | EC50 (VDR (pGal4-VDR-LBD)) [nM] | EC50 [2] [nM] | EC50 (rat osteocalcin promoter) [nM] | IC50 (KERtr cells) [nM] | IC50 (IL-10) [nM]
25 | (5-{1-ethyl-1-[4-(2-hydroxy-3,3-dimethyl-butoxy)-3-methyl-phenyl]-propyl}-3-methyl-thiophene-2-sulfonylamine)-acetic acid methyl ester |  | 901 | 431 | 146 |  | 
26 | CCc1cc(C(CC)(CC)c2ccc(C(=O)O)s2)ccc1OCC(C)(O)C(C)(C)C (centres unmarked) |  | 1030 | 372 |  |  | 
27 | CCC(CC)(c1ccc(OCC(O)CO)c(C)c1)c1ccc(OCC(O)C(C)(C)C)c(C)c1 (centres unmarked) | >=20 μg/Kg/d |  |  |  |  | 
28 | CCc1cc(C(CC)(CC)c2ccc(C(=O)N[C@@H](C)C(=O)O)s2)ccc1OCC(C)(O)C(C)(C)C (single isomer, unassigned) | <300 µg/kg/day | 113 | 18.8 |  |  | 
29 | CCC(CC)(c1ccc(OCC(C)(O)C(C)(C)C)c(OC)c1)c1ccc(C(=O)N[C@@H](C)C(=O)O)s1 (some centres unmarked) |  | 1110 | 859 |  |  | 
30 | CCC(CC)(c1ccc(OCC(O)C(C)(C)C)c(C)c1)c1cc(C)c(-c2n[nH]c(=O)o2)s1 (centres unmarked) |  | 371 | 80.7 | 17.6 | 522 | 
31 | CCC(CC)(c1ccc(OCC(O)C(C)(C)C)c(C)c1)c1cc(C)c(S(=O)(=O)Nc2ccccc2C(=O)O)s1 (centres unmarked) |  | 1210 | 372 |  |  | 
32 | CCC(CC)(c1ccc(OCC(O)C(C)(C)C)c(C)c1)c1cc(C)c(C(=O)N(C)OC)s1 (centres unmarked) |  | 1150 | 10.7 |  |  | 
33 | CCc1cc(C(CC)(CC)c2ccc(C(=O)O)s2)ccc1OCC(C)(O)C(C)(C)C (single isomer, unassigned) | 300 µg/kg/day | 352 | 160 |  |  | 
34 | (5-{1-ethyl-1-[4-(3-hydroxy-4,4-dimethyl-pentyl)-3-methyl-phenyl]-propyl}-3-methyl-thiophene-2-sulfonylaminoo)-acetic acid |  | 645 | 403 | 83.6 |  | 
35 | CCC(CC)(c1ccc(OCC(O)C(C)(C)C)c(C)c1)c1cc(C)c(S(=O)(=O)N[C@H](C)C(=O)O)s1 (some centres unmarked) |  | 715 | 257 |  |  | 
36 | CCC(=O)NS(=O)(=O)c1sc(C(CC)(CC)c2ccc(OCC(O)C(C)(C)C)c(C)c2)cc1C (centres unmarked) |  | 1340 | 401 |  |  | 
37 | CCC(CC)(c1ccc(CCC(O)C(C)(C)C)c(C)c1)c1cc(C)c(S(=O)(=O)NCC(=O)O)s1 (racemic) |  | 279 | 142 |  |  | 
38 | CCC(CC)(c1ccc(OCC(=O)C(C)(C)C)c(C)c1)c1cc(C)c(S(N)(=O)=O)s1 |  |  |  | 131 |  | 
39 | CCC(CC)(c1ccc(OCC(C)(O)C(C)(C)C)c(C)c1)c1ccc(C(=O)NCC(=O)O)s1 (single isomer, unassigned) |  | 899 | 83.8 |  |  | 
40 | 3′-[4-(2-hydroxy-3,3-dimethylbutoxy)-3-n-propylphenyl]-3′-[5-carboxy-thiophen-2-yl]pentane |  | 1180 | 421 | 21.4 |  | 
41 | CCC(CC)(c1ccc(CCC(O)C(C)(C)C)c(C)c1)c1cc(C)c(C(=O)OC)s1 (centres unmarked) |  | 1100 | 58.9 |  |  | 
42 | CCC(CC)(c1ccc(OCC(O)C(C)(C)C)c(C)c1)c1cc(C)c(S(=O)(=O)N[C@H](C)C(=O)OC)s1 (single isomer, unassigned) |  | 1130 | 104 |  |  | 
43 | CCC(CC)(c1ccc(OCC(O)C(C)(C)C)c(C(C)C)c1)c1ccc(C(=O)O)s1 (centres unmarked) | 1000 µg/kg/day |  |  |  |  | 
44 | CCC(CC)(c1ccc(OCC(O)C(C)(C)C)c(C)c1)c1cc(C)c(CN(CC(=O)O)C(C)=O)s1 (racemic) |  | 1110 | 337 |  |  | 
45 | CCC(CC)(c1ccc(OCC(O)C(C)(C)C)c(C)c1)c1cc(C)c(S(=O)(=O)NCC(=O)OC)s1 (single isomer, unassigned) |  | 620 | 318 | 29.9 |  | 
46 | CCC(CC)(c1ccc(OCC(=O)C(C)(C)C)c(C)c1)c1cc(C)c(S(=O)(=O)N[C@H](C)C(=O)O)s1 | >3000 µg/kg/day |  | 676 |  |  | 
47 | CCCc1cc(C(CC)(CC)c2ccc(S(=O)(=O)NCC(=O)O)s2)ccc1OCC(O)C(C)(C)C (centres unmarked) |  | 484 | 236 |  |  | 
48 | CCC(CC)(c1ccc(OCC(O)C(C)(C)C)c(C)c1)c1cc(C)c(S(=O)(=O)NC(C)(C)C(=O)OC)s1 (centres unmarked) |  | 1150 | 848 |  |  | 
